Patent US4699914A, “Imidazole group containing 2(1H)-pyridones and method for treating heart insufficiencies in humans” (A. Nattermann & Cie GmbH, priority 1984, dated 1987)

System: human platelets
Test: Inhibition of the collagen-induced platelets aggregation in vitro (method of Born)
Format: cell-based
Settings: Platelet, read-out: IC50 (concentration which causes an aggregation inhibition of 50%)
Experimental: The inhibition of the collagen-induced platelets aggregation in vitro was carried out by using the method of Born (Nature, 194, 927-929 (1962)) in using a platelet rich human plasma with the substances of the present invention 3,6-dimethyl-5-[-5-(1-imidazolyl)-2-thienyl]-2(1H)-pyridone-hydrochloride=C, 3,6-dimethyl-5-[4-(1-imidazolyl)phenyl]-2(1H)-pyridone-hydrochloride=D, 5-[4-(1-imidazolyl)-2-thienyl]-6-methyl-2(1H)-pyridone-hydrochloride=E in comparison with the reference substance acetylsalicyclic acid=F.

CC(=O)Oc1ccccc1C(=O)O [F]
IC50: 90 µM
